From patent EP0672658B1, “Antithrombotic agents” (priority 1994, dated 1995)

Experiment: in vivo
Set-up: species or system rats
Conditions: rat, plasma
[1] = po, read-out: % oral/i.v. activity (Rat)
Further: key: NC^1 indicates screening not completed; low or very low activity obsrved at 20 mg/kg p.o; NC^2 indicates screening not completed; low or very low activity observed at 60 mg/kg p.o; NC^3 indicates screening not completed; low or very low activity observed at 50 mg/kg p.o.

Q: For `N=C(N)c1ccc(CNC(=O)[C@@H]2CCCN2C(=O)[C@@H]2NCC[C@@H]3CCCC[C@@H]32)cc1` [Example 18, 1-Piq-Pro-p-NHCH2C6H4C(NH)NH2·2HCl], which bioavailability [1] is on record?
A: 12%

Q: With `CCS(=O)(=O)N[C@H](Cc1ccccc1)C(=O)N1CCC[C@H]1C(=O)NCc1ccc(C(=N)N)cc1` [Example 23, EtSO2-D-Phe-Pro-p-NHCH2-C6H4C(=NH)NH2·HCl] as the molecule, how does the bioavailability [1] read?
A: 12%

Q: For `N=C(N)c1ccc(CNC(=O)[C@@H]2CCCN2C(=O)[C@H]2CCCCN2)cc1` [Example 17, D-hPro-Pro-p-NHCH2C6H4C(NH)NH2·HCl], which bioavailability (oral vs i.v.) is on record?
A: 15%

Where a name gives a salt, the structure may show the parent alone. Read-outs that look alike come from different tables or passages of the source.
